## Binding of CDR-mutated scFvs to a peptide of the spike HR2 region

Values reported by Engelhart et al. 2022, doi:10.1038/s41597-022-01779-4 (FLAb copy).

Target peptide (SARS-CoV-2 spike, HR2 region): PDVDLGDISGINAS

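The parent was found by panning a naive human phage display library on the peptide. Library AAYL49 holds single substitutions and randomly drawn double and triple substitutions in the CDRs. AlphaSeq pools MATa yeast showing the antibodies with MATalpha yeast showing the peptide. Pairs that bind mate more often; barcode pairs of the diploids are counted by sequencing. Each replicate has its own calibration line, from reference interactions of the BCL2 family. There are three technical replicates.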

Each scFv is VH, three GGGGS repeats, VL, as in the parent Ab-14, and differs from it in the CDRs of the heavy chain only.
VH: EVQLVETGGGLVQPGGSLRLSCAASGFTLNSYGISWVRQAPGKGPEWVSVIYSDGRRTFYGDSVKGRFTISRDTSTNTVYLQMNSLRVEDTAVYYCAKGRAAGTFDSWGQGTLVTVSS
VL: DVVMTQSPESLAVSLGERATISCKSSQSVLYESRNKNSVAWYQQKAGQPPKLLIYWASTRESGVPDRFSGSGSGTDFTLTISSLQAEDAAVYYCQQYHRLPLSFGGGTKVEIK

Variants are written as CDR1, CDR2 and CDR3 of the heavy chain (limits as in the source). Parent: GFTLNSYGIS, VIYSDGRRTFYGDSVK, GRAAGTFDS.
Kd is apparent (estimated from mating counts) and averaged on the log scale over replicates with a signal. Smaller is tighter.
"nd" means that the variant was in the library but no mating with the target was seen in any replicate; the authors take this as a sign of poor binding, and no number exists.

CDR-H1 | CDR-H2 | CDR-H3 | Kd (apparent) | detected | control signals
GFTLNSYGES | VIYSDGRRTFYGDSKL | GRAAGTFDS | nd | 0 of 3 | 0 of 9
GFTLNRYGIS | VGYSDLRRTFYGDSVK | GRAAGTFDS | nd | 0 of 3 | 0 of 9
GFTLNSYGIS | HIYSDGRRTFYGDSMK | GRAATTFDS | nd | 0 of 3 | 0 of 9
CFYLNSYGIS | VIYSDGRRTFYGDSVK | GAAAGTFDS | nd | 0 of 3 | 1 of 9
GFTLNCYGIS | VIYSDGRRTFYEDSVK | GRDAGTFDS | nd | 0 of 3 | 1 of 9
GFTLNYYGIS | VIYSDGRRTFSYDSVK | GRAAGTFDS | nd | 0 of 3 | 1 of 9
GFTLNSYGIS | MIYQDGRRTFYGDQVK | GRAAGTFDS | 5.2 µM | 2 of 3 | 1 of 9
GFTLNSYGIS | VIYSDWRRTFLGVSVK | GRAAGTFDS | 210 µM | 1 of 3 | 4 of 9
GFTLNSGGIS | VIASDSRRTFYGDSVK | GRAAGTFDS | 15 µM | 3 of 3 | 7 of 9
GFTLNSYGIS | VCYSDGRRTPYGDSVK | GEAAGTFDS | 1.5 µM | 2 of 3 | 0 of 9
GFWLNSYGIS | VIYSDGRRTFYGDSVK | GRPAVTFDS | nd | 0 of 3 | 3 of 9
GFTLNSYGIL | VINRDGRRTFYGDSVK | GRAAGTFDS | 15 µM | 2 of 3 | 2 of 9
GFDLNSYGIS | VIYSDGRSTFYGDSVK | GRAAGEFDS | nd | 0 of 3 | 0 of 9
GFTLNSHGIS | VIYSDGRRFFTGDSVK | GRAAGTFDS | 32 µM | 2 of 3 | 3 of 9
GFTLNSYGIS | VIYSDYLRTFYGDSVK | GRAADTFDS | nd | 0 of 3 | 0 of 9
GFELNSYGIS | VIYSLGRRTGYGDSVK | GRAAGTFDS | 8.7 µM | 1 of 3 | 3 of 9
GFQLNSLGIS | VIYSDGRRTFYGDSLK | GRAAGTFDS | 41 µM | 3 of 3 | 4 of 9
GFELNSYGIP | VIYSDGRRTFVGDSVK | GRAAGTFDS | nd | 0 of 3 | 0 of 9
GFTLNSYGIS | VIYSDGRWTFYGWSVK | GRNAGTFDS | 1.6 µM | 1 of 3 | 1 of 9
GFTLNSVGIS | VIYSDGRRTFYGDSSK | GRAAGCFDS | 1.4 µM | 2 of 3 | 1 of 9
GGTLNSYGIS | HIYSDGRRTFYGDSAK | GRAAGTFDS | 2.4 µM | 1 of 3 | 1 of 9
GFTLNSYQIS | VNYSDGRRTFYGDSVK | GTAAGTFDS | 5.8 µM | 1 of 3 | 5 of 9
GFTLNSYGVS | VIYSDGRRPFYGDSVF | GRAAGTFDS | 6.6 µM | 2 of 3 | 0 of 9
VFTLNSYGIS | VIYSDGRRTEYGDSVK | GRCAGTFDS | 1.1 µM | 2 of 3 | 0 of 9
GFTLNSYGIS | VIYSDGRRTFYGDSMK | GRVAGTFDS | nd | 0 of 3 | 0 of 9
MFTLNSYGIS | VIYSDGRRQFYGDSVK | GRAAGWFDS | nd | 0 of 3 | 0 of 9
GFTLNSYGIS | VIYSDGRRTFYGDSVM | ERDAGTFDS | nd | 0 of 3 | 0 of 9
GFCLNSYGIS | VIYSDGRRTFYGDSVK | GRIAGTSDS | 6.1 µM | 2 of 3 | 4 of 9
GFTLNSYGIS | VIYSYYGRTFYGDSVK | GRAAGTFDS | 1.5 µM | 1 of 3 | 0 of 9
GFDLNSYGIS | VIYSDGRKTFSGDSVK | GRAAGTFDS | 1.2 µM | 3 of 3 | 3 of 9
GFTLNSYGIS | VIYSDGRRTFYGDSIK | GRAATTFKS | nd | 0 of 3 | 0 of 9
GFTLNSNGIS | VIYSDGRRFVYGDSVK | GRAAGTFDS | 50 µM | 2 of 3 | 6 of 9
GFTLNSHGIS | VIYSDYRRTFYGDSVK | GRAAGYFDS | nd | 0 of 3 | 0 of 9
GFTLNSLGIS | VIYSDGRRTFYGDSVK | GRAAGTKCS | 36 µM | 2 of 3 | 2 of 9
GFTLNSYGIS | VIRSDGRRTFYGDSVK | GRAAGDFDS | 1.7 mM | 1 of 3 | 4 of 9
GFTLYSYGIS | VIYSDGRRTFYNDSKK | GRAAGTFDS | 140 µM | 1 of 3 | 0 of 9
GFTLHSYWIS | VIYSDGCRTFYGDSVK | GRAAGTFDS | 160 µM | 1 of 3 | 1 of 9
GFALNSYGIS | VIYSDHRRTFYGDSVK | GRAAGTFWS | nd | 0 of 3 | 2 of 9
GFTLNSYGIS | VIYSDGRRTFYGDSVK | GREALTFDE | 12 nM | 3 of 3 | 3 of 9
GFTLNSYGNS | VIYSDGYRTFYGDSHK | GRAAGTFDS | nd | 0 of 3 | 1 of 9
GFTLNSPGIS | VIYSDKYRTFYGDSVK | GRAAGTFDS | nd | 0 of 3 | 1 of 9
GITLNSYGIS | VIYSDGRRTFYGDSVW | GRAAGTFRS | 650 nM | 3 of 3 | 2 of 9
GFPLNSYGIS | TIYSDGRRTFYGDSVK | GRAAGTSDS | nd | 0 of 3 | 0 of 9
GFTLNSYGIS | VIYSDGRRTFYGDGVK | GRATGTFDM | 480 nM | 2 of 3 | 0 of 9
GFTLNCYGIS | VIYSDGRRTFYGDSVK | GRAACQFDS | 840 nM | 3 of 3 | 3 of 9
GFVLNSYVIS | VIYSDGRRTFYGDSVK | GRAAYTFDS | 16 µM | 3 of 3 | 3 of 9
GFTLNSYGES | VIGSDGRRTFYGDYVK | GRAAGTFDS | 12 µM | 2 of 3 | 0 of 9
GFTLNSYGIS | VRYSDGRRTFKGDSVK | GVAAGTFDS | nd | 0 of 3 | 1 of 9
GFTLNSFGIS | VIYSNGRRTFYGDSVG | GRAAGTFDS | 32 µM | 3 of 3 | 3 of 9
GFTLNSYNIS | VIYSDGRRTFYGDSEA | GRAAGTFDS | nd | 0 of 3 | 2 of 9
GFTLNSYGIS | VIDSDGRRTFYGDSVK | GNAAGTFVS | nd | 0 of 3 | 0 of 9
GFTTNSYGIS | VIYADGRRTFYGDSVK | GRAAGTFDV | 18 nM | 3 of 3 | 5 of 9
GFTLHSYGIS | VIGSDGRRTFYGDSVK | GRARGTFDS | 5.6 µM | 1 of 3 | 1 of 9
GPTLNSYGIS | VIYSDGQRAFYGDSVK | GRAAGTFDS | 350 nM | 3 of 3 | 2 of 9
GFTLNSYGIS | VIYSDGRDTFYGCSVK | GRAAGTLDS | 2.3 µM | 1 of 3 | 0 of 9
GFALNSPGIS | VIYSDGRRTFYGDSVK | GRAAGTFDH | 84 µM | 1 of 3 | 4 of 9
PFTLNSYGIS | VIYSWGRRTFYGDSVK | GFAAGTFDS | nd | 0 of 3 | 0 of 9
GFTLNSYGMS | VIYSDGRRTFYGDAVV | GRAAGTFDS | 3.3 µM | 1 of 3 | 1 of 9
GFTLNSYGIS | VHTSAGRRTFYGDSVK | GRAAGTFDS | nd | 0 of 3 | 0 of 9
GFTLNSYGIS | HIYSDGRRTFYGDSVK | GRAADSFDS | nd | 0 of 3 | 0 of 9
GFTLNSYGMS | VIYSDGRVTFYGDSVK | GRAAGTFDP | 1.8 µM | 1 of 3 | 1 of 9

The closing 5 entries, repeated:

CDR-H1	CDR-H2	CDR-H3	Kd (apparent)	detected	control signals
PFTLNSYGIS	VIYSWGRRTFYGDSVK	GFAAGTFDS	nd	0 of 3	0 of 9
GFTLNSYGMS	VIYSDGRRTFYGDAVV	GRAAGTFDS	3.3 µM	1 of 3	1 of 9
GFTLNSYGIS	VHTSAGRRTFYGDSVK	GRAAGTFDS	nd	0 of 3	0 of 9
GFTLNSYGIS	HIYSDGRRTFYGDSVK	GRAADSFDS	nd	0 of 3	0 of 9
GFTLNSYGMS	VIYSDGRVTFYGDSVK	GRAAGTFDP	1.8 µM	1 of 3	1 of 9

Nonspecific signal, from three strains lacking the peptide, appeared in 15% of pairings of library AAYL49, centred on 11 µM (5% of these signals below 680 nM); values are not corrected for it. Also given: how often the same scFv was detected with the empty control strains.